Target: truncated human beta-secretase (residues 1-458, His6-tagged) (Homo sapiens (Human), UniProt P56817)
Experiment: BACE enzyme assay (fluorescence quench, Example 434A)
Format: biochemical

COC1CCC2(CC1)Cc1ccc(C#CC3CCCC3)cc1C21N=C(N)N(C)C1=O (stereo not shown) [Compound 147]
IC50: 2.2 nM

Source: US10336717B2, “Inhibitors of beta-secretase” (Vitae Pharmaceuticals, Inc., priority 2009, dated 2019)
